US8778919B2, “Cyclic anilino—pyridinotriazines” (Janssen Pharmaceutica NV, priority 2005, dated 2014)

Protein sequences, listed by entry. Tags and fused reporters are not part of them. Lines headed by an entry give the natural chain unless they say otherwise; changes in a name come on top.
UniProt P49840, whole entry: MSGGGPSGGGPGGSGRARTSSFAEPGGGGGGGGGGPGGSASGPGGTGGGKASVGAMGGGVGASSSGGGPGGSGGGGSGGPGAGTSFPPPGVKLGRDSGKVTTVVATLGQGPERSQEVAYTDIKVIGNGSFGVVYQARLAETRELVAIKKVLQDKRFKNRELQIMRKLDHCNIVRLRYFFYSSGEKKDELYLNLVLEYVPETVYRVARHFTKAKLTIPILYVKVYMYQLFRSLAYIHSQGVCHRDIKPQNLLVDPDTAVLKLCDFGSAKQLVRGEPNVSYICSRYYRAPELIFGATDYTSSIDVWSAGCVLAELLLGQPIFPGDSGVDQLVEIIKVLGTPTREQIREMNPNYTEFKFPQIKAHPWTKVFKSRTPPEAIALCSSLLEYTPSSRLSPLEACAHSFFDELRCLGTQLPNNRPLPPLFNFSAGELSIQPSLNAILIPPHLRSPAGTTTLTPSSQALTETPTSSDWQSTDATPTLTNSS
UniProt P49841, whole entry: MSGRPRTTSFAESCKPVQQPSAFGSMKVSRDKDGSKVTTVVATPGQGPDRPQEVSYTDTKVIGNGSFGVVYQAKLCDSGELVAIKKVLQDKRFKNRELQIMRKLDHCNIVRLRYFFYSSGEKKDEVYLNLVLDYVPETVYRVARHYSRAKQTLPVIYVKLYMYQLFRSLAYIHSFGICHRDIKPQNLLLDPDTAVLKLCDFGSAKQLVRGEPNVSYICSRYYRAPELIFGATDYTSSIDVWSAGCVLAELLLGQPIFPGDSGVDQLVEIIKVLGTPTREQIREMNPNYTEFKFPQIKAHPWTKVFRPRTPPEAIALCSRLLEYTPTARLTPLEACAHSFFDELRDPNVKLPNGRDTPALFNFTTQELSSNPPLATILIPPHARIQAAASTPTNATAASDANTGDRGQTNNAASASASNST
UniProt O14965, whole entry: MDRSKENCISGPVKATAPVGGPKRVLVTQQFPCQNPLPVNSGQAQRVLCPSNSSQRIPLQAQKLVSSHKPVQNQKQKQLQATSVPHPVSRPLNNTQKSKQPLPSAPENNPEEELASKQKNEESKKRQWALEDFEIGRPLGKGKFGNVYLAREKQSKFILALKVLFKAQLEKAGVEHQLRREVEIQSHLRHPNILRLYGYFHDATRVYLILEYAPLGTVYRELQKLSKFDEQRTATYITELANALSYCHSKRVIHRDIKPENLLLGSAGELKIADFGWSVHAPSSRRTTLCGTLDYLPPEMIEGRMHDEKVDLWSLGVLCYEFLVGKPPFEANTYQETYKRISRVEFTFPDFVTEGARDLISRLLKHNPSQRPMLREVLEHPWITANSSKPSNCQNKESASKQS
UniProt P06493, whole entry: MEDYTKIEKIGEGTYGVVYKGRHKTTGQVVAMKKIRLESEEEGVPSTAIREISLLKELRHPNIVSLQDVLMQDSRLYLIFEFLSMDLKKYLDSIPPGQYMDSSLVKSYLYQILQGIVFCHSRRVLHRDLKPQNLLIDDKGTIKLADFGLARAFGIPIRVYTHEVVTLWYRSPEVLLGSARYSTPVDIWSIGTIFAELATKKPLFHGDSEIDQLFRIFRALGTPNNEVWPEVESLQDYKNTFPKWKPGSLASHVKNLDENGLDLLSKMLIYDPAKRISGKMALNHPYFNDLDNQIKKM
UniProt Q00526, whole entry: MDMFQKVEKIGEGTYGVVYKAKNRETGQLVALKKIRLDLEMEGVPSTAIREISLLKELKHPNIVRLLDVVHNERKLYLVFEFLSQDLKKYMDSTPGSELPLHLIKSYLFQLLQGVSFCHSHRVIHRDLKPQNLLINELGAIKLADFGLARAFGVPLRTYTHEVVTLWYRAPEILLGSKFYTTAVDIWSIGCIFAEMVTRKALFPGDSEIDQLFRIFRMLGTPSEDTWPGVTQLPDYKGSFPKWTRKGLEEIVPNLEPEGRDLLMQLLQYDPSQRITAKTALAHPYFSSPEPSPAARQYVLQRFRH
UniProt Q00535, whole entry: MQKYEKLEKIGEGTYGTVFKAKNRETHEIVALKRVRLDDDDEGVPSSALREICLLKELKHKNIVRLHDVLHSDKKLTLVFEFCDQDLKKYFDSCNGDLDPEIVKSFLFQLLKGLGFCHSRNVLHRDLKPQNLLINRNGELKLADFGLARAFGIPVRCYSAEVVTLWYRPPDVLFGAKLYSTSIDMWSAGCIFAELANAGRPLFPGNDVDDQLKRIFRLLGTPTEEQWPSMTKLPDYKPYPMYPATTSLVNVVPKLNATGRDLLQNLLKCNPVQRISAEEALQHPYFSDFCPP
UniProt Q00534, whole entry: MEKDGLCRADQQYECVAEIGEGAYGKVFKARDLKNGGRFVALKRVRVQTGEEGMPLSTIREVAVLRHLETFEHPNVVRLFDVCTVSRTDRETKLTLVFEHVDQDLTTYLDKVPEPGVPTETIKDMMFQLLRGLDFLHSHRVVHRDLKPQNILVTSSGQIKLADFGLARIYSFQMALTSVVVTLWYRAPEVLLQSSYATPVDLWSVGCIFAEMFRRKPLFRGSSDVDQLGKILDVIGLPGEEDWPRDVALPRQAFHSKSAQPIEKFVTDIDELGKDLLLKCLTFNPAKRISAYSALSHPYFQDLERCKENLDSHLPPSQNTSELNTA
UniProt P50613, whole entry: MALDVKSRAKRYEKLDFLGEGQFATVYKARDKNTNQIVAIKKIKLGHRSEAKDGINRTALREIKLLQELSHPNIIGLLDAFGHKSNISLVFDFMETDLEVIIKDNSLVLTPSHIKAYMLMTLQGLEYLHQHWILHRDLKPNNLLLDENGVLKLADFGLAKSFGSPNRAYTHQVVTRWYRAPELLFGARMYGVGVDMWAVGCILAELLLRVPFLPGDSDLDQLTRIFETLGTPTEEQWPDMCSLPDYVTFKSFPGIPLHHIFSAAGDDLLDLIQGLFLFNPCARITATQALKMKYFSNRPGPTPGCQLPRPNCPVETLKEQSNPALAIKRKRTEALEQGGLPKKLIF
UniProt P07947, whole entry: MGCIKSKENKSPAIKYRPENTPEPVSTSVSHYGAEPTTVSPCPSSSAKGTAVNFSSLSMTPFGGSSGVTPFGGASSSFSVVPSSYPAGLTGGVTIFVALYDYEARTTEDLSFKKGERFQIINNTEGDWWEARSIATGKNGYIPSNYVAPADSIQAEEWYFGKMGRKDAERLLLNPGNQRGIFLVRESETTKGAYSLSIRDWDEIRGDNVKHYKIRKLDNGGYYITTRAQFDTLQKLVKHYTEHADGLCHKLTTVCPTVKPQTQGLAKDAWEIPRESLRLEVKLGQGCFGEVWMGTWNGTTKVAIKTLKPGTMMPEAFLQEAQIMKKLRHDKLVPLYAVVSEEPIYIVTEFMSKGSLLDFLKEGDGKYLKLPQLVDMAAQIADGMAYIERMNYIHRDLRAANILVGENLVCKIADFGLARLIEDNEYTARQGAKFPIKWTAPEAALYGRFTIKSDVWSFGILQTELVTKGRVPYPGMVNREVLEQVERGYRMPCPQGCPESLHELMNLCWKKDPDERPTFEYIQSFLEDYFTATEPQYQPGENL
UniProt P51948, whole entry partner: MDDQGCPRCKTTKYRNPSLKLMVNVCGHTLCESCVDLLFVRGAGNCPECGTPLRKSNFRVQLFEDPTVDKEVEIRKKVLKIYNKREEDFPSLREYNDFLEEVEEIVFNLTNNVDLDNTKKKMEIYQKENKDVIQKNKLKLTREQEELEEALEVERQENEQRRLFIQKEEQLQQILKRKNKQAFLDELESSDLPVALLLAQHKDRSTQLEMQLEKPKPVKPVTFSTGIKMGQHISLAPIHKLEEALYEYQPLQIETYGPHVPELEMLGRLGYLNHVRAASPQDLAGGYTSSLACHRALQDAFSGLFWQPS
UniProt Q15078, whole entry partner: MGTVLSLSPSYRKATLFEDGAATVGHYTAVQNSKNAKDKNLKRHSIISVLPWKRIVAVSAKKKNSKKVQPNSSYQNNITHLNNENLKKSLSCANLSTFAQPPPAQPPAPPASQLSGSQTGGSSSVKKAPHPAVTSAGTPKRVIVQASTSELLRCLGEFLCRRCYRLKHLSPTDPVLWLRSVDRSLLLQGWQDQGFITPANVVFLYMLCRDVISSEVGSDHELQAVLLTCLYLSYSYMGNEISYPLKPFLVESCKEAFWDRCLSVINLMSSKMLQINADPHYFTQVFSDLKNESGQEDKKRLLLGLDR
UniProt P24864, whole entry partner: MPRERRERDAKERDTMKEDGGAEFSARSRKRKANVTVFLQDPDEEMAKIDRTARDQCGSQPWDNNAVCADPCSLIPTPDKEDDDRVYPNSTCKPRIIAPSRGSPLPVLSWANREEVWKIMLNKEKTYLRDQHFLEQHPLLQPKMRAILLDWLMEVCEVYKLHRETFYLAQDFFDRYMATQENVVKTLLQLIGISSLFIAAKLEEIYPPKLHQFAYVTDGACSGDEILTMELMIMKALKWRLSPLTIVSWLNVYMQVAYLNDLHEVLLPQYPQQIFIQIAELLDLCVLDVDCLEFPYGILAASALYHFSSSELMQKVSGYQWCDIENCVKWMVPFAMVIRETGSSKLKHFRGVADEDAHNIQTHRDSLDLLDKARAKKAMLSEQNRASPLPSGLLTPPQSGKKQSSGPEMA
UniProt P30281, whole entry partner: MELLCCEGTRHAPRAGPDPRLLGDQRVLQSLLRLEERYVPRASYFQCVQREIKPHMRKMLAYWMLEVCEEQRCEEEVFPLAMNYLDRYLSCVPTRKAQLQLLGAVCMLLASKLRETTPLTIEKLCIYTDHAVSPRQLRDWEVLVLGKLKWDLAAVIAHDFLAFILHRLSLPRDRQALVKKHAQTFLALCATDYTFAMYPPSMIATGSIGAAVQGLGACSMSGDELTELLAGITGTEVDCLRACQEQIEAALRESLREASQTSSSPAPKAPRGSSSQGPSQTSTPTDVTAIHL
UniProt P14635, whole entry partner: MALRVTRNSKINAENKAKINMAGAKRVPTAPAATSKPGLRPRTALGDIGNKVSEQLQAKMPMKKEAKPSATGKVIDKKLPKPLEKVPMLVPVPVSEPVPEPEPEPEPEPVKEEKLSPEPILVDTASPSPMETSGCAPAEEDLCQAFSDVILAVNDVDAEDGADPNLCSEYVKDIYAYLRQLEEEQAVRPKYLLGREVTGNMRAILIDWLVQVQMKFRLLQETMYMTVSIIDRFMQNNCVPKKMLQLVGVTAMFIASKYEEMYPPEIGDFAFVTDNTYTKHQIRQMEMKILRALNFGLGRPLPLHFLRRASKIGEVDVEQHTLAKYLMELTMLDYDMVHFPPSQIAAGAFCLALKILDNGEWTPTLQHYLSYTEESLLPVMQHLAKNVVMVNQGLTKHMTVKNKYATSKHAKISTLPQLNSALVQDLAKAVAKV
UniProt P51946, whole entry partner: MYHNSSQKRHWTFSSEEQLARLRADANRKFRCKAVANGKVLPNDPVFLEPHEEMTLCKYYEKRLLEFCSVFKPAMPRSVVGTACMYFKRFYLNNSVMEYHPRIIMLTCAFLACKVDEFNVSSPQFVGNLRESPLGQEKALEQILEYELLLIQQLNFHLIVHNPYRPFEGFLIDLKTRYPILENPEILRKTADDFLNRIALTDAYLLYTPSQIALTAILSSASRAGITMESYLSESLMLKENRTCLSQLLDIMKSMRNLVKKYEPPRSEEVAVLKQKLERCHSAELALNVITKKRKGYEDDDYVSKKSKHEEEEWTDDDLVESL

Assays:
GSK-3α = GSK-3α (Homo sapiens, UniProt P49840); assay: GSK-3 kinase assay (C1), GSK-3α; settings: 1 μM ATP
Protocol: (§1) In vitro GSK-3 assays were performed at room temperature in a 100 μl reaction volume of 25 mM Tris (pH 7.4) containing 10 mM MgCl2.6H2O, 1 mM DTT, 0.1 mg/ml BSA, 5% glycerol, 5.7 ng/μl GSK-3β or 0.25 ng/μl GSK-3α, 5 μM biotinylated CREB peptide, 1 μM ATP, 0.85 μCi/ml ^33P-ATP and a suitable amount of a test compound. After one hour, the reaction was terminated by adding 70 μl of Stop mix (0.1 mM ATP, 5 mg/ml streptavidin coated PVT SPA beads, pH 11.0). The beads were allowed to settle overnight and the radioactivity attached to the beads was counted in a microtiter plate scintillation counter and compared with the results obtained in a control experiment (without the presence of a test compound) in order to determine the percentage of GSK-3 inhibition. The IC50 value, i.e. the concentration (M) of the test compound at which 50% of GSK-3 is inhibited, was calculated from the dose response curve obtained by performing the above-described GSK-3 assay in the presence of different amounts of the test compound. Score 1=pIC50 value<6, Score 2=pIC50 value from 6-7, Score 3=pIC50 value from 7-8, Score 4=pIC50 value>8.

GSK-3β = GSK-3β (Homo sapiens, UniProt P49841); assay: GSK-3 kinase assay (C1), GSK-3β; settings: 1 μM ATP
Protocol: as §1

Chang cells = assay: GSK-3 cellular assay (C2): 14C-D-glucose incorporation into glycogen; settings: increase in D-glucose incorporation into glycogen, test concentration of 10^−6 M
Protocol: Test compounds were tested for their ability to increase the incorporation of ^14C-D-glucose into glycogen in living cells. To do this, Chang cells (360,000 cells/well) were cultured in 0.5 ml of MEM Rega 3 medium supplemented with 10% fetal calf serum, 1% L-glutamine and 2% sodium carbonate. After 3 days, cells were washed with 0.5 ml of phosphate-buffered saline and overlayed with 1 ml of serum- and glucose-free DMEM medium. Then, 2 μl of compound in DMSO and 50 μl substrate (3 mM glucose and 0.5 μCi ^14C-D-glucose were added and the cultures were incubated for 90 min. Cells were then extracted with 0.5 ml of 20% KOH for 60 min at 37° C. and the cell lysates were transferred to 10 ml tubes containing 300 μl of 1 mg/ml glycogen as […]. Following the addition of 2 ml ethanol, total glycogen was precipitated overnight at −20° C. and the precipitates were recovered by centrifugation. Precipitates were then resuspended in 1 ml of water and transferred to scintillation counter vials. and the amount of ^14C-D-glucose incorporation into glycogen was measured by scintillation counting. Scores for the compounds according to the invention, were obtained at a test concentration of 10^−6 M. Score 1=10-30% increase, Score 2=30-60% increase, Score 3=60-80% increase and Score 4=>80% increase in D-glucose incorporation.

Aurora-A (h) = Aurora-A (h) (Homo sapiens, UniProt O14965); assay: Kinase profiling C3.1 Aurora-A human; settings: test concentration of 10^−6 M
Protocol: (§2) The in vitro inhibition of a panel of kinases was assessed using either the glass-fiber filter technology as described by Davies, S. P. et al., Biochem J. (2000), 351; p. 95-105. In the glass-fiber filter technology the activity of the kinase of interest is measured using an appropriate substrate that is incubated with the aforementioned kinase protein in the presence of (^33P) radiolabeled ATP. (^33P) Phosporylation of the substrate is subsequently measured as radioactivity bound on a glassfiber-filter.
(§3) All kinases are pre-diluted to a 10× working concentration prior to addition into the assay. The composition of the dilution buffer for each kinase is detailed below.
(§4) All substrates are dissolved and diluted to working stocks in de-ionised water, apart from histone H1 that is stored in 10× working stock in 20 mM MOPS pH 7.4.
(§5) In a final reaction volume of 25 μl, Aurora-A (h) (5-10 mU) is incubated with 8 mM MOPS pH 7.0, 0.2 mM EDTA, 200 μM LRRASLG (Kemptide), 10 mM MgAcetate and [γ-^33P-ATP] (specific activity approx. 500 cpm/pmol, concentration as required). The reaction is initiated by the addition of the MgATP mix. After incubation for 40 minutes at room temperature, the reaction is stopped by the addition of 5 μl of a 3% phosphoric acid solution. […]

CDK1/cyclinB (h) = CDK1/cyclinB (h) (Homo sapiens, UniProt P06493); assay: Kinase profiling C3.2 CDK1/cyclinB human; settings: test concentration of 10^−6 M
Protocol: as §2, §3, §4
as §5, with “CDK1/cyclinB” for “Aurora-A”, “0.1 mg/ml histone H1,” for “200 μM LRRASLG (Kemptide),”

CDK2/cyclinA (h) = CDK2/cyclinA (h) (Homo sapiens, UniProt P24941); assay: Kinase profiling C3.3 CDK2/cyclinA human; settings: test concentration of 10^−6 M
Protocol: as §2, §3, §4
as §5, with “CDK2/cyclinA” for “Aurora-A”, “0.1 mg/ml histone H1,” for “200 μM LRRASLG (Kemptide),”

CDK2/cyclinE (h) = CDK2/cyclinE (h) (Homo sapiens, UniProt P24941); assay: Kinase profiling C3.4 CDK2/cyclinE human; settings: test concentration of 10^−6 M
Protocol: as §2, §3, §4
as §5, with “CDK2/cyclinE” for “Aurora-A”, “0.1 mg/ml histone H1,” for “200 μM LRRASLG (Kemptide),”

CDK3/cyclinE (h) = CDK3/cyclinE (h) (Homo sapiens, UniProt Q00526); assay: Kinase profiling C3.5 CDK3/cyclinE human; settings: test concentration of 10^−6 M
Protocol: as §2, §3, §4
as §5, with “CDK3/cyclinE” for “Aurora-A”, “0.1 mg/ml histone H1,” for “200 μM LRRASLG (Kemptide),”

CDK5/p35 human = CDK5/p35 human (Homo sapiens, UniProt Q00535); assay: Kinase profiling C3.6 CDK5/p35 human; settings: CDK5/p35, test concentration of 10^−6 M
Protocol: as §2, §3, §4
as §5, with “CDK5/p35 human” for “Aurora-A (h)”, “0.1 mg/ml histone H1,” for “200 μM LRRASLG (Kemptide),”

CDK6/cyclinD3 human = CDK6/cyclinD3 human (Homo sapiens, UniProt Q00534); assay: Kinase profiling C3.7 CDK6/cyclinD3 human; settings: CDK6/cyclinD3, test concentration of 10^−6 M
Protocol: as §2, §3, §4
as §5, with “CDK6/cyclinD3 human” for “Aurora-A (h)”, “0.1 mg/ml histone H1,” for “200 μM LRRASLG (Kemptide),”

CDK7/cyclinH/MAT1 (h) = CDK7/cyclinH/MAT1 (h) (Homo sapiens, UniProt P50613); assay: Kinase profiling C3.8 CDK7/cyclinH/MAT1 human; settings: CDK7/cyclinH/MAT1, test concentration of 10^−6 M
Protocol: as §2, §3, §4
as §5, with “CDK7/cyclinH/MAT1” for “Aurora-A”, “500” for “200”, “peptide,” for “LRRASLG (Kemptide),”

cSRC (h) = cSRC (h) (Homo sapiens, UniProt P12931); assay: Kinase profiling C3.9 cSRC human; settings: test concentration of 10^−6 M
Protocol: as §2, §3, §4
as §5, with “cSRC” for “Aurora-A”, “250” for “200”, “KVEKIGEGTYGVVYK (Cdc2 peptide),” for “LRRASLG (Kemptide),”

Yes (h) = Yes (h) (Homo sapiens, UniProt P07947); assay: Kinase profiling C3.10 Yes human; settings: test concentration of 10^−6 M
Protocol: as §2, §3, §4
as §5, with “Yes” for “Aurora-A”, “0.1 mg/ml poly(Glu, Tyr) 4:1,” for “200 μM LRRASLG (Kemptide),”

Structure (SMILES) | C1 Score α (GSK-3α) | C1 Score β (GSK-3β) | C2 Score (Chang cells) | C3.1 score (Aurora-A (h)) | C3.2 score (CDK1/cyclinB (h)) | C3.3 score (CDK2/cyclinA (h)) | C3.4 score (CDK2/cyclinE (h)) | C3.5 score (CDK3/cyclinE (h)) | C3.6 score (CDK5/p35 human) | C3.7 score (CDK6/cyclinD3 human) | C3.8 score (CDK7/cyclinH/MAT1 (h)) | C3.9 score (cSRC (h)) | C3.10 score (Yes (h))
CN1CCCc2cc(ccn2)-c2ncnc(n2)Nc2cccc(c2)CCNC(=O)C1 | 4 (Score 4=pIC50 value>8) | 4 (Score 4=pIC50 value>8) | 4 (Score 4=>80% increase in D-glucose incorporation) | 4 (Score 4 = >80% inhibition) | 4 (Score 4 = >80% inhibition) | 4 (Score 4 = >80% inhibition) | 4 (Score 4 = >80% inhibition) | 4 (Score 4 = >80% inhibition) | 4 (Score 4 = >80% inhibition) | 2 (Score 2 = 30-60% inhibition) | 4 (Score 4 = >80% inhibition) | 2 (Score 2 = 30-60% inhibition) | 1 (Score 1 = 10-30% inhibition)
O=C1NCCCNc2cccc(c2)-c2ncnc(n2)Nc2cccc(c2)CN[C@H]1Cc1ccccc1 | 3 (Score 3=pIC50 value from 7-8) |  |  |  |  |  |  |  |  |  |  |  | 
